The text below walks through data of patent EP0236477B1 (priority 1985, dated 1987).

Structures are written as SMILES. Like-named read-outs stand apart in the source and are kept apart here.

Experiment [1] has as its system healthy males.
Experiment [2] deals with healthy males. The following applies: pretreatment 0.5, 1.0 or 2.0 mg intravenously.

In the case of `C=C1CC[C@@]2(O)[C@H]3Cc4ccc(O)c5c4[C@@]2(CCN3CC2CC2)[C@H]1O5` [6-methylene-6-desoxy-N-cyclopropylmethyl-14-hydroxydihydronormorphine], in the experiment with healthy males [1] (pretreatment 0.5 mg intravenously), the “persistence of antagonist effects” value is “about 4 hours”. The VE60 is listed as 64 % of control in the experiment on healthy males [1] (pretreatment 0.5 mg intravenously, fentanyl challenge at about 4 hours); 66 % of control with healthy males [1] (pretreatment 1.0 mg intravenously, fentanyl challenge at 6 hours); 61 % of control in the experiment on healthy males [1] (pretreatment 1.0 mg intravenously, fentanyl challenge at 8 hours). In the experiment on healthy males [1] (pretreatment 1.0 mg intravenously, over 8 hours), the “effect on fentanyl respiratory depression compared to placebo pretreatment” value was “significantly blunted the respiratory depression”. The “prevention of the subjective and respiratory effects of fentanyl” value with healthy males [1] (pretreatment 2.0 mg intravenously, fentanyl 2 µg/kg at 1, 2, 4, 6, 8 hours) is “completely prevented the subjective and respiratory effects of fentanyl for the entire 8 hours”. In addition, the “effect on the analgesic response to fentanyl” value with healthy males [2] was “abolished this analgesic response in a dose-related time course”.
